# Test results taken from patent US20080085893A1, “MATRIX METALLOPROTEASE INHIBITORS” (priority 2006, published 2008).
# Target: T1, human MMP-1 (amino acids 100-262) (Homo sapiens, UniProt P03956)
# T1 construct: human MMP-1 (amino acids 100-262); made in house
# T1 sequence (P03956 100-262): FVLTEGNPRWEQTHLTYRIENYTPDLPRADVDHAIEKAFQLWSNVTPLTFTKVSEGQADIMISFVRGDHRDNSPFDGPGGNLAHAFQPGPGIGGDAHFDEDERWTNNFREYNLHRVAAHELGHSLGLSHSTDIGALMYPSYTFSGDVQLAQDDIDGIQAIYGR
# Assay: MMP dose response assay for determining IC50, MMP-1
# Assay type: biochemical
# Conditions: MMP-1 (nM)
# Procedure: MMP Dose Response Assay for Determining IC50
# The following method was used for determining IC50 values of different inhibitor compounds against multiple MMP enzymes. Frozen stocks of recombinantly produced MMPs were prepared in assay buffer (50 mM HEPES pH 7.4, 10 mM CaCl2, 0.05% Brij-35). […] Enzyme concentrations in the assay were determined empirically and set such that proteolytic activity was maintained in a linear range over the time-course of the experiment. […] Each concentration for each test compound was tested in triplicate. MMP enzymes were equilibrated with compounds for 1 hour at room temperature, then a fluorescent-quench substrate (Acetyl-Cys(Eu)-Pro-Leu-Gly-Leu-Lys-(QSY7)-Ala-Arg-amide) was added to a final concentration of 100 nM. […] Data was analyzed by first calculating average background value from wells that contained only substrate, and this value was subtracted from the entire plate. The 100%, or maximum value, was determined by averaging control wells that contained enzyme, substrate and DMSO. For each well, the percent of control was calculated by dividing the well value by the average DMSO value obtained above.
smiles,measurement,value
"Cc1ccc(Oc2ccc(N(C[C@@H](O)C(=O)NO)S(C)(=O)=O)cc2)cc1 [Example 7, N-Hydroxy (2R)-2-hydroxy-3-{N-[4-(4-methylphenoxy)phenyl],N-methanesulfonylamino}propionamide]",IC50,> 10000 nM
"Cc1ccc(Oc2ccc(N(C[C@H](O)C(=O)NO)S(C)(=O)=O)cc2)cc1 [Example 8, N-Hydroxy (2S)-2-hydroxy-3-{N-[4-(4-methylphenoxy)phenyl],N-methanesulfonylamino}propionamide]",IC50,> 10000 nM
